Only a part is listed here, and it is no random draw. Active and inactive are the calls of the source.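 The calls were made as follows: active = activation, as change over the incubation, above the mean of all tested compounds plus 3 SD (cut at about 13% in these data); inactive = the rest.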

Sequences of proteins named here, by UniProt entry; tags and fusion partners are left off. A change or cut given only in a name is not applied to a line headed by its entry.
UniProt P49862: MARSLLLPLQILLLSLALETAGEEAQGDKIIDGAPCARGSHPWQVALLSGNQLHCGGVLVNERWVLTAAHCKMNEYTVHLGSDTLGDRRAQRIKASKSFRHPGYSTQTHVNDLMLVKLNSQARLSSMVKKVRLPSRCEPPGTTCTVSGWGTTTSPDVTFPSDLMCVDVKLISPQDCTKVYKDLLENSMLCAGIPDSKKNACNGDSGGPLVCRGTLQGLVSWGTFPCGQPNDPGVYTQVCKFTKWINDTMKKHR

For this experiment, the target named is Kallikrein-7 (Homo sapiens) (UniProt P49862). The experiment is described as follows: proKLK7 zymogen activators, confirmation, biochemical, fluorescence intensity, triplicate (AID 686949). Particulars: purified proKLK7, EDANS-DABCYL substrate fluorescence; at 7 µM; active compounds read high; scaled: vehicle 0, mature enzyme 100.
For the compound `Nc1cccc2ccc([As](=O)(O)O)cc12`, the activation is active: 18.1%.

The values are drawn from PubChem BioAssay AID686949 (The Scripps Research Institute Molecular Screening Center, 2013).
